The other results are listed elsewhere or left out.

In this assay the test system is A. baumannii ATCC 17978. The assay is described as follows: relative growth (fraction of control); higher = less inhibition. To be noted: 50 µM.
As for `O=CN1CCN(C(=O)c2ccccc2)CC1`, the relative growth was found to be 1.08.

`CN(C)Cc1cn(CC[C@H]2CC[C@@H](NS(=O)(=O)c3ccccc3)[C@@H](CO)O2)nn1` gave a relative growth of 0.974. On to `O=c1c(O[C@@H]2O[C@H](CO)[C@H](O)[C@H](O)[C@H]2O)c(-c2ccc(O)c(O)c2)oc2cc(O)cc(O)c12`, for which the relative growth was determined as 1.09. The value for `O=P([O-])(O)C(O)(Cc1cccnc1)P(=O)(O)O.[Na+]` was 0.921; that for `Cc1c(-c2cnccn2)ssc1=S` was 1.29; that for `COc1ccc([Si](C)(C)[C@H]2[C@H](CCO)O[C@@]3(C(=O)N(Cc4ccc(N5C(=O)c6cccc7cccc5c67)cc4)c4ccccc43)[C@@H]2C)cc1` was 1.22. The value for `C=C[C@H]1CN2CC[C@H]1C[C@@H]2[C@@H](O)c1ccnc2ccc(OC)cc12.O=C(O)[C@H](O)[C@@H](O)[C@H](O)[C@H](O)CO` was 0.944. As to `CCCCNC(=O)N1CCN(C)CC1`, the relative growth was 0.928. The value for `CCOC(=O)CN1C[C@]23C=C[C@H](O2)[C@@H](C(=O)NCc2ccc(OC)cc2)[C@H]3C1=O` was 0.992. The value for `C[C@H](CO)N1C[C@H](C)[C@@H](CN(C)C(=O)C2CCOCC2)Oc2ncc(C#Cc3cccc(F)c3)cc2C1=O` was 0.971; that for `O=C(C[C@@H]1CC[C@H]2[C@@H](COC[C@@H](O)CN2Cc2cc(F)ccc2F)O1)N[C@@H]1CCN(Cc2ccccc2)C1` was 1.11. The value for `CC(=O)OCC(=O)[C@@]1(O)CCC2C3CCC4=CC(=O)C=C[C@]4(C)[C@@]3(F)[C@@H](O)C[C@@]21C` (stereo partly specified) was 1.01; that for `CN(C)CC(=O)N[C@H]1CC[C@H](CCn2cc(CN(C)C)nn2)O[C@@H]1CO` was 0.964. For `O=C(O)/C=C/C(=O)O.OCCOCCN1CCN(C2=Nc3ccccc3Sc3ccccc32)CC1`, the relative growth was determined as 1.05. `COc1ccc(C(=O)Nc2ccc(CN3C(=O)[C@]4(O[C@H](CCO)[C@@H]([Si](C)(C)F)[C@@H]4C)c4ccccc43)cc2)cc1` returned a relative growth of 0.822. With `O=C(C[C@H]1C[C@@H]2c3cc(NC(=O)NC4CCCC4)ccc3O[C@@H]2[C@H](CO)O1)NCc1ccc(Oc2ccccc2)cc1`, the relative growth was found to be 0.805. The value for `Cn1cnc(S(=O)(=O)N2C[C@H](O)COC[C@@H]3O[C@@H](CC(=O)NCc4cc(F)cc(F)c4)CC[C@H]32)c1` was 1; that for `C=C(O)C(=O)OCC` was 0.934; that for `O=c1[nH]c(=O)n([C@H]2C[C@H](O)C(CO)O2)cc1I` (stereo partly specified) was 1.02.

For the compound `C[C@@H](NC(=O)COc1ccccc1)C(=O)O`, the relative growth was determined as 1. `NCC[C@H]1CC[C@H](NC(=O)C2CC2)[C@H](CO)O1` showed a relative growth of 1.05. The value for `C[C@]12CC[C@@H]3c4ccc(OC(=O)c5ccccc5)cc4CC[C@H]3[C@@H]1CC[C@@H]2O` was 1.08. The value for `COc1ccc(S(=O)(=O)N2C[C@H](O)COC[C@H]3O[C@@H](CC(=O)NCCN4CCCCC4)CC[C@@H]32)cc1` was 1.16.

`COCCCC/C(=N\OCCN)c1ccc(C(F)(F)F)cc1.O=C(O)/C=C\C(=O)O`: the relative growth is 1.09. In the case of `O=C(NCC(F)(F)F)[C@@H]1c2ccccc2C(=O)N(Cc2cc(F)cc(C(F)(F)F)c2)[C@H]1c1ccc(CO)cc1`, the relative growth amounted to 1.17. Take `CCc1nnc(SCC(=O)O)n1N`: the relative growth stood at 1.14. Regarding `CN1CCN(C(c2ccccc2)c2ccccc2)CC1`, the relative growth was 0.903. The value for `C[C@H](CO)N1C[C@H](C)[C@@H](CN(C)C(=O)C2CCC2)Oc2cc(-c3ccc(C(=O)N(C)C)cc3)ccc2S1(=O)=O` was 1.06; that for `O=C(C[C@H]1CC[C@H]2[C@@H](COC[C@H](O)CN2C(=O)Nc2ccc3c(c2)OCO3)O1)N1CCN(c2ccccc2)CC1` was 1. The compound `O=C1NC(=S)N/C1=C\c1ccco1` registered a relative growth of 0.939. `CC(=O)O[C@@H]1CC2C(C)(C)C=CC[C@]2(C)C2CC[C@@]3(C)C(c4ccoc4)OC(=O)[C@H]4O[C@]43[C@@]21C` (stereo partly specified): the relative growth stood at 0.982.

Turning to `CC1(C)[C@@H](O[C@@H]2O[C@H](C(=O)O)[C@@H](O)[C@H](O)[C@H]2O[C@@H]2O[C@H](C(=O)O)[C@@H](O)[C@H](O)[C@H]2O)CC[C@]2(C)[C@H]3C(=O)C=C4C5C[C@@](C)(C(=O)O)CC[C@]5(C)CC[C@@]4(C)[C@]3(C)CC[C@@H]12` (stereo partly specified), the relative growth is 1.01. The compound `CCCNC(C)(C)COC(=O)c1ccccc1.Cl` returned a relative growth of 1.08. Compound `OCCN(CCO)c1nc(N2CCCCC2)c2nc(N(CCO)CCO)nc(N3CCCCC3)c2n1` gave a relative growth of 1.14. The value for `CO[C@H]1CN(C)C(=O)c2cc(NC(=O)Nc3ccccc3F)ccc2OC[C@H](C)N(Cc2ccccc2C(=O)O)C[C@H]1C` was 1.05. Consider `O=C(Nc1ccc(-c2ccccc2)cc1)[C@H]1C[C@@H]1c1ccccc1`, for which the relative growth is 0.867. The value for `CCCCC(=O)c1ccc(O)cc1` was 0.808.

Take `COCCCOc1cc(C[C@@H](C[C@H](N)[C@@H](O)C[C@H](C(=O)NCC(C)(C)C(N)=O)C(C)C)C(C)C)ccc1OC.O=C(O)/C=C/C(=O)O`: the relative growth worked out at 0.871. `COCc1n[nH]c(C)c1C(=O)O` gave a relative growth of 1.21.

As for `CC(C)NC(=O)N[C@H]1C=C[C@@H](CC(=O)NCCCN(C)C)O[C@@H]1CO`, the relative growth was determined as 1.08. The value for `O=S(=O)(NCC[C@@H]1CC[C@H](NS(=O)(=O)c2cccc(Cl)c2)[C@@H](CO)O1)c1cccc(F)c1` was 1.1.

Compound `O=C(O)c1ccccc1C(=O)Nc1ccc(S(=O)(=O)Nc2nccs2)cc1` returned a relative growth of 0.982. The value for `CN1C(=O)c2cc(NC(=O)c3cscn3)ccc2OC[C@@H]2O[C@H](CC(=O)N3CCOCC3)CC[C@@H]21` was 1.04; that for `Cc1cc(C(=O)O)c(=O)[nH]c1C` was 1.1. With `C#C[C@]1(O)CCC2C3CCC4=C(CCC(=O)C4)C3CC[C@@]21C` (stereo partly specified), the relative growth was determined as 1.04. The value for `C[C@@H]1CC2C3CCC4=CC(=O)C=C[C@]4(C)[C@@]3(Cl)[C@@H](O)C[C@]2(C)[C@@]1(OC(=O)c1ccco1)C(=O)CCl` (stereo partly specified) was 1.16; that for `Nc1ccc(C(=O)[O-])cc1.[K+]` was 1.2; that for `CCCNC(=O)Nc1ccc2c(c1)OC[C@H](C)N(C(=O)C1CCOCC1)C[C@H](C)[C@@H](OC)CN(C)C2=O` was 1.24.

Consider `Fc1cccc2c(Cl)ccnc12`, for which the relative growth was 0.841. In the case of `CC1CC(OC(=O)c2ccccc2O)CC(C)(C)C1` (stereo unspecified), the relative growth was found to be 1.22. The value for `COc1ccccc1NCC(=O)NN` was 0.988. The value for `C[C@@H]1CN([C@@H](C)CO)S(=O)(=O)c2ccc(Br)cc2O[C@@H]1CN(C)C(=O)c1cnccn1` was 1.12; that for `COC(=O)C1=C(C#N)NC(C)=C(C(=O)OC(C)C)C1c1cccc([N+](=O)[O-])c1` (stereo unspecified) was 1.21; that for `COCC(=O)N(C)C[C@@H]1Oc2cc(C#CCN(C)C)ccc2S(=O)(=O)N([C@H](C)CO)C[C@H]1C` was 0.99. Take `CCCNC(=O)N(C)C[C@H]1Oc2cc(C#Cc3cccc(F)c3)ccc2S(=O)(=O)N([C@H](C)CO)C[C@@H]1C`: the relative growth is 0.963. In the case of `N[C@H](Cc1c[nH]c2ccccc12)C(=O)O`, the relative growth worked out at 1.15. The value for `CN1CCN(C(=O)C[C@@H]2C=C[C@@H](NC(=O)Cc3ccccn3)[C@H](CO)O2)CC1` was 1.14; that for `CCN1CCN(C(=O)/C=C\C(=O)O)CC1` was 1.07. Take `C[C@@H]1CN([C@@H](C)CO)S(=O)(=O)c2ccc(C#CC(C)(C)O)cc2O[C@H]1CN(C)Cc1ccccc1`: the relative growth is 0.637. Consider `CN(CCO)S(=O)(=O)c1cccc(C(=O)O)c1`, for which the relative growth was 0.902.

As to `CC[n+]1oc(-c2ccccc2)cc1C`, the relative growth amounted to 0.95. The value for `CN1CCN(C(=O)C[C@@H]2CC[C@@H]3[C@H](COC[C@@H](O)CN3C(=O)C3CC3)O2)CC1` was 0.979; that for `C/C(=N\N)c1nnn(-c2nonc2N)c1C` was 1.01.

`CC(C)[N+](C)(CCOC(=O)C1c2ccccc2Oc2ccccc21)C(C)C.[Br-]` yielded a relative growth of 0.968. In the case of `O=C(CCCN1CCN(c2ccccn2)CC1)c1ccc(F)cc1`, the relative growth was determined as 0.876. On to `COC(=O)CCCCCCC(=O)N/N=C/[C@H](O)[C@H](O)[C@@H](O)[C@H](C)O`, for which the relative growth amounted to 1.12.

`COc1ccc(NC(=O)N2C[C@@H](O)COC[C@H]3O[C@@H](CC(=O)NCc4ccccc4OC)CC[C@@H]32)cc1` showed a relative growth of 1.09. The value for `C[N+](C)(C)CCCCNC(=O)[C@H]1C[C@H]2C(=O)N[C@@H](CCCC[N+](C)(C)C)C(=O)N2[C@H]1c1cccc(OCCO)c1` was 1.05.

Regarding `O=C(C[C@@H]1CC[C@H]2[C@@H](COC[C@@H](O)CN2S(=O)(=O)c2cccc(Cl)c2)O1)NCCCN1CCOCC1`, the relative growth came out at 1.07. The value for `Nc1c2ccccc2nc2ccccc12` was 0.255; that for `Cc1noc(C)c1NC(=O)N[C@H]1C=C[C@H](CC(=O)N2CCN(C)CC2)O[C@@H]1CO` was 1.05; that for `CN(C)c1nc(Oc2ccc(=O)n(C)n2)nc(N(C)C)n1` was 0.935. The value for `COCCOC(=O)N1C(=O)[C@@]2(c3cc(C#CCC(C(=O)OC)C(=O)OC)ccc31)[C@H](C(=O)N1CCCCCCC1)[C@H]1C(=O)O[C@H](c3ccccc3)[C@H](c3ccccc3)N1[C@@H]2c1ccc(O)cc1` was 1.02; that for `CC(C)NC(=O)N[C@@H]1C=C[C@H](CC(=O)NCCCN(C)C)O[C@H]1CO` was 0.98; that for `CCCNC(=O)N1C[C@@H](O)COC[C@H]2O[C@H](CC(=O)NCc3ccncn3)CC[C@@H]21` was 0.859. The value for `COc1ccc(CCN(C)CCCC(C#N)(c2ccc(OC)c(OC)c2)C(C)C)cc1OC.Cl` (stereo unspecified) was 0.945; that for `CCCNC(=O)N1C[C@@H](C)[C@@H](OC)CN(C)C(=O)c2ccc(NS(=O)(=O)CC(F)(F)F)cc2OC[C@H]1C` was 0.957. As to `Cc1ccc(=O)n(-c2ccccc2)c1`, the relative growth came to 0.783.

Compound `NCC[C@H]1CC[C@H](NC(=O)NC2CCCCC2)[C@@H](CO)O1` showed a relative growth of 0.924. `O=S(=O)(Cc1nn[nH]n1)c1ccccc1` yielded a relative growth of 0.975. The value for `O=C(C[C@@H]1CC[C@@H]2[C@H](COC[C@H](O)CN2S(=O)(=O)c2ccccc2Cl)O1)NCc1ccccc1Cl` was 0.94; that for `CC1(C)OCC(CO)([N+](=O)[O-])CO1` was 0.969. Consider `CSC(=N)Nc1csc(C(F)(F)F)c1-c1ccccc1`, for which the relative growth is 0.953.

`CNc1ncnc(Cl)c1N`: the relative growth came out at 1.03. The value for `NNC(=O)[C@H]1C[C@H]2C[C@@H]1C[C@@H]2C(=O)NN` was 0.984; that for `CN[C@H]1CC[C@@H](c2ccc(Cl)c(Cl)c2)c2ccccc21.Cl` was 0.141.

(Values after published antibiotic growth screens (doi:10.1038/s41589-023-01349-8).)
